Literature values in article PMC4645461, “Increased food intake with oxyntomodulin analogues” (Peptides, 2015).

Tests used:
[1] = ref [36],[37]; cited from earlier work
[2] = no reference given; cited from earlier work
From the text: Additionally, methods of peptide administration differ: some studies infused peptides while others administer ...

oxyntomodulin [OXM]
blood glucose [1]: does not elevate blood glucose
stability in solution [2]: unstable in solution
